This note sets out measurements from ChEMBL document CHEMBL1949670, “Probes for narcotic receptor mediated phenomena. 44. Synthesis of an N-substituted 4-hydroxy-5-(3-hydroxyphenyl)morphan with high affinity and selective μ-antagonist activity” (Eur J Med Chem, 2012).

Chains of the proteins cited; added tags and fusions are not shown.
UniProt P41143, whole entry, looked up: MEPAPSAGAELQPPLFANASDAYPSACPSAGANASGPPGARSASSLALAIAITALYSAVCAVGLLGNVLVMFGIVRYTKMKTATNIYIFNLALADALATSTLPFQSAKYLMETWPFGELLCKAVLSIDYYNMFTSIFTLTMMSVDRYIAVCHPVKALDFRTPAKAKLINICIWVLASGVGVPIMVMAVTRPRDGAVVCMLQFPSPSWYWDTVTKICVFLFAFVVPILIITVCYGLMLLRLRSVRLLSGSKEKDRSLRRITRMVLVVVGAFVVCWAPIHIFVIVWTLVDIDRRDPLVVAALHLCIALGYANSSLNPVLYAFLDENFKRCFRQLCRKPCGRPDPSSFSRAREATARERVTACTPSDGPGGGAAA
UniProt P35372, whole entry, looked up: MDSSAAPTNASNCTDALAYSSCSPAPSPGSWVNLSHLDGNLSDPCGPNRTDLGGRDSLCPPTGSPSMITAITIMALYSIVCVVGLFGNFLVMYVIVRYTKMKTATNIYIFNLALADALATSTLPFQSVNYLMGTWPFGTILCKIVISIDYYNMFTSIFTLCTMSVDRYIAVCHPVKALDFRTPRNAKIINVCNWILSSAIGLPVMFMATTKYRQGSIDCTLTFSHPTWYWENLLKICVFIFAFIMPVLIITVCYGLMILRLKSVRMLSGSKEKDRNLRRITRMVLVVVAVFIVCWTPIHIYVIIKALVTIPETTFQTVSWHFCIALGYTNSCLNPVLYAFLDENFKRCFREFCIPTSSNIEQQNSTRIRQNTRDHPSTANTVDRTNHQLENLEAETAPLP

The target in test [1] is Delta-type opioid receptor (Homo sapiens, UniProt P41143). Put plainly: Displacement of [3H]-DADLE from human delta opioid receptor expressed in CHO cells membrane after 2 hrs by liquid scintillation counting.
Another test deals with Mu-type opioid receptor (Homo sapiens, UniProt P35372). As to conditions: cho.

In the case of `CN(C(=O)Cc1ccccc1)[C@H]1CC[C@@]2(CCCO2)C[C@@H]1N1CCCC1`, the Ki in test [1] turned out to be 12.5 µM; on Mu-type opioid receptor, 2.37 µM.
